This note sets out measurements from ChEMBL document CHEMBL1144473, “Selective inhibition of carboxylesterases by isatins, indole-2,3-diones” (J Med Chem, 2007).

Sequences of proteins named here, by UniProt entry; tags and fusion partners are left off.
UniProt P06276, whole entry: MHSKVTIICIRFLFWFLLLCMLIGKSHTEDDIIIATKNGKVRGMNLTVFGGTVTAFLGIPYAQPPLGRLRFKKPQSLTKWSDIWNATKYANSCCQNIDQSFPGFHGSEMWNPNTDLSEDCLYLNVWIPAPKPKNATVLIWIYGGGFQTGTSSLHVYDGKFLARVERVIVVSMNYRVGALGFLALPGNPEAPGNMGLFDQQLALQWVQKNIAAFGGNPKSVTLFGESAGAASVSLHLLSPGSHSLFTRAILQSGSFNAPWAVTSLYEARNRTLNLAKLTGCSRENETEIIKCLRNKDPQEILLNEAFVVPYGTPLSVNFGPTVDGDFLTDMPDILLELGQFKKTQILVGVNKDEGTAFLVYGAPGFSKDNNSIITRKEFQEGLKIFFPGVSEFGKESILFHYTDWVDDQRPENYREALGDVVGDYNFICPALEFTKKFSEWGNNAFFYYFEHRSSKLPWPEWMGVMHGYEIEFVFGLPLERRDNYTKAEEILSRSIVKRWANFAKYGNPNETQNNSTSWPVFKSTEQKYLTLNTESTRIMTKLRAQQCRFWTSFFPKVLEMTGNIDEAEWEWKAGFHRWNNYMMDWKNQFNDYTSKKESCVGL

SMILES strings stand for the structures.

The target in this experiment is Cholinesterase (Homo sapiens, UniProt P06276).

Regarding `O=C1C(=O)N(Cc2ccc(Cc3ccc(CN4C(=O)C(=O)c5ccccc54)cc3)cc2)c2ccccc21`, the Ki is > 100 µM.
